In paper PMC12302718, “Molecular basis for Gβγ-SNARE-mediated inhibition of synaptic vesicle fusion” (The Journal of Biological Chemistry, 2025):

Target: Gβ1γ2
Assay: Alphascreen direct binding assay (concentration response of His-tagged Gβ1γ2)
Conditions: read-out: Affinity of Gβ1γ2 for the biotinylated partner (EC50), 20 nM biotinylated protein, His-tagged Gβ1γ2 0.1 nM - 1 μM, three technical replicates
Method: Nb5 binds to the center of the Gβ1 β-propeller domain ([53]) and is not expected to hinder interactions involving the N-terminal coiled-coil domain. […] The means ± SD of three technical replicates are shown.
Alphascreen acceptor beads were added to each well to a final concentration of 20 μg/ml and incubated for 30 min. 20 μg/ml Alphascreen donor beads were then added prior to incubation in a plate shaker for 1 h. Plates were read in a Biotek Synergy Neo. Concentration response curves were analyzed in GraphPad prism to derive EC50 values. […] Nb5 was added in concentrations ranging from 0.4 nM to 1.26 μM.

SNAP25: synaptosomal-associated protein-25, full-length, biotinylated
EC50: 0.351 µM
